This is an account of results in ChEMBL document CHEMBL4184341, “Structure-Based Design of Inhibitors with Improved Selectivity for Steroidogenic Cytochrome P450 17A1 over Cytochrome P450 21A2” (J Med Chem, 2018).

Chains of the proteins cited; added tags and fusions are not shown.
UniProt P10635, whole entry: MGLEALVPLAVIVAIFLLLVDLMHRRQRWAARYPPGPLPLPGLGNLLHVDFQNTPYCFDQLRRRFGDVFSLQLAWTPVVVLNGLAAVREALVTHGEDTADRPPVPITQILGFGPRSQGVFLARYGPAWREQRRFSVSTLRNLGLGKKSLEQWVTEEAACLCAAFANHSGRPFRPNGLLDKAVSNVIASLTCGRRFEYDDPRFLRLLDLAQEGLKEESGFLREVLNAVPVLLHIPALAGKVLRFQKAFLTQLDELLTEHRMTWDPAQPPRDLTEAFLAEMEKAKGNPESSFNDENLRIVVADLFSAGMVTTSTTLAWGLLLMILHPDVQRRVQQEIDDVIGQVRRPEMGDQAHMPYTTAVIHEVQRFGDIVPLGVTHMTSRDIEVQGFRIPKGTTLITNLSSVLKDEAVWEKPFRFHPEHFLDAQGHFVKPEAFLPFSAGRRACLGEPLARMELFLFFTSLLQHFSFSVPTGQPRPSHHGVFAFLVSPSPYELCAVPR

One series is filed under the species Homo sapiens. The series can be described thus: Selectivity ratio of IC50 for C-terminal His-tagged recombinant human CYP21A2deltaH mutant to IC50 for C-terminal His-tagged recombinant human CYP17A1delta19H mutant.
The next series concerns the target Cytochrome P450 2D6 (Homo sapiens, UniProt P10635). The series can be described thus: Inhibition of C-terminal His-tagged recombinant human CYP2D6 assessed as decrease in metabolism of dextromethorphan up to 640 nM. The format is ADME. The settings on record: recombinant enzyme.

With `C[C@]12CCC(=O)C=C1CC[C@@H]1[C@@H]2CC[C@]2(C)C(c3cccnc3)=CC[C@@H]12`, in the series filed under Homo sapiens, the Ratio IC50 was found to be 0.11. In the case of `C[C@]12CC[C@H](O)CC1=CC[C@@H]1[C@@H]2CC[C@]2(C)C(c3cccnc3)=CC[C@@H]12` [ABIRATERONE], at Cytochrome P450 2D6, the “inhibition (INH)” value is listed as “Not Active”.
